Assay results taken from patent US7618967B2, “Indane compounds” (H. Lundbeck A/S, priority 2006, dated 2009).

Chains of the proteins cited; added tags and fusions are not shown. Residues count along the entry.
UniProt P31652, whole entry: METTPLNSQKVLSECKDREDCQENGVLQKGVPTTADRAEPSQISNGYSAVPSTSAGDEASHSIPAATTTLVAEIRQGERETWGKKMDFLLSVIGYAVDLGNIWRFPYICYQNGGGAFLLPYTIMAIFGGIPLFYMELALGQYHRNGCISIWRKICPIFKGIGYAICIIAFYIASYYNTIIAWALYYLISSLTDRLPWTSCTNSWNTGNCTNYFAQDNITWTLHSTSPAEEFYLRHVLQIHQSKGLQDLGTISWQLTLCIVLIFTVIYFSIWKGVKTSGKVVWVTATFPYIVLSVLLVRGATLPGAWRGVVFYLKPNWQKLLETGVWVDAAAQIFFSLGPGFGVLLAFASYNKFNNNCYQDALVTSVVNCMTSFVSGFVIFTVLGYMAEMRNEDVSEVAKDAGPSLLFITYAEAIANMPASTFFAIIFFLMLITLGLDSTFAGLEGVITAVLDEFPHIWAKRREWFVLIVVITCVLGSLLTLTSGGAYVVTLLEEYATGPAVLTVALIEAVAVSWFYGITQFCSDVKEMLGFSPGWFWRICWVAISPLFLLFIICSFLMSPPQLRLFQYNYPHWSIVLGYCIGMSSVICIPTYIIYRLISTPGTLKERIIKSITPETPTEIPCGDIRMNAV
UniProt P23977, whole entry: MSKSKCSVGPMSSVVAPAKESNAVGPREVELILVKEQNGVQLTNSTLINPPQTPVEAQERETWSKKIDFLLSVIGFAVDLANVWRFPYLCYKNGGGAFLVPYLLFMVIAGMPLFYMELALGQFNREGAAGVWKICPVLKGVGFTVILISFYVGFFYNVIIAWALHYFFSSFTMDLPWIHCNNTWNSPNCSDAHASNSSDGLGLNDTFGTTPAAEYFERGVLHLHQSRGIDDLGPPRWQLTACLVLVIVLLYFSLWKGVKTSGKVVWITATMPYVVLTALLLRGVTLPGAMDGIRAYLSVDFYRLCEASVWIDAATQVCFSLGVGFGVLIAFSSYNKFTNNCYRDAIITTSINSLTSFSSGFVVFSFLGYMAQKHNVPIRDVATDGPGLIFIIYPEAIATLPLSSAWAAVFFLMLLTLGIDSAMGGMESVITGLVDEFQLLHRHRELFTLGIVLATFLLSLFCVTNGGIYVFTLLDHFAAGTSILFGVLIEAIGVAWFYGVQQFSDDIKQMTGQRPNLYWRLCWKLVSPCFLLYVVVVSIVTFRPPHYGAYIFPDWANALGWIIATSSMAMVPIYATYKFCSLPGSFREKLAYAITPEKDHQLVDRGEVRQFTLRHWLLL
UniProt Q9WTR4, 6-550 limits assumed: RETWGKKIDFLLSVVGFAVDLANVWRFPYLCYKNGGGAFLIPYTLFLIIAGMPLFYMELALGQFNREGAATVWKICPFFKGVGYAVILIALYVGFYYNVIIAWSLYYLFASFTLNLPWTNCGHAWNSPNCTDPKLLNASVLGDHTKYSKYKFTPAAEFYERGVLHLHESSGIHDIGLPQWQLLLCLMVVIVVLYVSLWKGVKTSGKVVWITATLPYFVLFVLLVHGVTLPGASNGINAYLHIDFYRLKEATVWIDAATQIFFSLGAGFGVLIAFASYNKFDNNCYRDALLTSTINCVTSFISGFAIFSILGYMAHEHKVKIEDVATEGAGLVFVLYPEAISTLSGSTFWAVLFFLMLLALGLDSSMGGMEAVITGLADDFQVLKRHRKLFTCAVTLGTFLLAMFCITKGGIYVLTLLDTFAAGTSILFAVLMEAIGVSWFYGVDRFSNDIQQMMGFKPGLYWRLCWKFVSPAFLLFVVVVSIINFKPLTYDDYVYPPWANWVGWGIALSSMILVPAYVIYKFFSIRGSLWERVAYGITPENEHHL

Experiments:
Format in all cases: biochemical
[1] = target: 5-HTT Serotonin Transporter (Rattus norvegicus, UniProt P31652); test: Measurements of [3H]-5-HT uptake into rat cortical synaptosomes; conditions: read-out: 5-HTT (IC50 nM)
[2] = target: DAT Dopamine Transporter (Rattus norvegicus, UniProt P23977); test: Measurements of [3H]dopamine uptake into rat synaptosomes; conditions: read-out: DAT (IC50 nM), rat synaptosomes (striatum)
[3] = target: NAT Noradrenergic Transporter (Rattus norvegicus, UniProt Q9WTR4); test: Measurements of [3H]noradrenaline uptake into rat cortical synaptosomes; conditions: read-out: NAT (IC50 nM)

IC50 [1] | IC50 [2] | IC50 [3] | Structure (SMILES)
0.1 to 200 nM | 0.1 to 200 nM | 0.1 to 200 nM | CN[C@H]1C[C@@H](c2c[nH]c3c(F)cccc23)c2ccccc21
0.1 to 200 nM | 0.1 to 200 nM | 0.1 to 200 nM | CN[C@@H]1C[C@H](c2c[nH]c3c(F)cccc23)c2ccccc21
